The source made the active and inactive calls. The rule behind the calls is not given here.

Chains of the proteins cited; added tags and fusions are not shown.
UniProt P62942, whole entry, looked up: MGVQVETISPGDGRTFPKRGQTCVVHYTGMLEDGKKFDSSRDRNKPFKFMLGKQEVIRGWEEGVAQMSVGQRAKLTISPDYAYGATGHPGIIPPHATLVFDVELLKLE

The record followed here is PubChem BioAssay AID608 (Sanford-Burnham Center for Chemical Genomics, 2007).

This assay addresses Peptidyl-prolyl cis-trans isomerase FKBP1A (Homo sapiens) (UniProt P62942). The assay can be described thus: FKBP12 binders, biophysical, NMR detection (AID 608). To be noted: NMR binding, purified FKBP12.

As to `Cc1c2non([O-])c-2c(C)[n+](=O)[n+]1[O-]`, the Kd result was “inactive”.
